Tested on: male Wistar rats
Experiment: Ocular inflammation induced by corneal instillation of P48/80: total MPO activity in the whole eye
Type: in vivo, rat
Settings: six hours after instillation
Protocol: FIG. 1: Experimental protocol for example 1. Animals received two pretreatments with ML-7 [1 mg/kg by the intraperitoneal (IP) route] on the day before instillation of P48/80 (in the morning and evening) and one pretreatment two hours before instillation.
The corneal irritation model which was used has been validated in the rat (Allansmith et al., Acta Ophtalmol, 1989; 192S: 145-153) and in the rabbit (Bucolo et al., J. Ocul. Pharmacol, 1993; 9: 321-332).
Animals: Three groups of eight male Wistar rats (200-250 g) housed in individual cages were used. Animals were given a standard diet (UAR, Villemoisson, Epinay sur Orge) and drinking water ad libitum.
Inflammation induction: Inflammation was induced by instillation in the eye of 10 μl of a 10% P48/80 solution (0.1 g/ml). The control eye was instilled with 10 μl of 1×PBS.
Assay of myeloperoxidase activity: The eyes were excised and homogenized in phosphate buffer with the aid of a polytron. They were then subjected to three freeze/thaw cycles (liquid nitrogen/37° C. water bath). After centrifugation at 10,000 rpm for 15 min at 4° C., the pellets were resuspended in HTAB buffer and sonicated for 10 sec. After a second centrifugation, MPO activity was assayed from the supernatant in a reaction buffer containing O-dianisidine hydrochloride and 0.0005% hydrogen peroxide. The change in absorbance at 460 nm was measured on a spectrophotometer. […]

Substance: condensate of N-methyl-p-methoxyphenethylamine and formaldehyde [P48/80]
- MPO activity in the eye after P48/80 (10 μl of 10% P48/80 instilled in left eye, whole eye): 43.1±11.3 U/g.protein
- increase in MPO activity after P48/80 (versus baseline 8.5±1.2 U/g.protein): 407%

Reference: US8273708B2, “Methods of treatment of ocular surface pathologies” (priority 2004, dated 2012)
